Assay results from paper PMC9040839, “Chemotaxis of the Human Pathogen Pseudomonas aeruginosa to the Neurotransmitter Acetylcholine” (mBio, 2022).

Protein sequences, listed by entry. Tags and fused reporters are not part of them.
UniProt Q9HVF8, entry or part of it: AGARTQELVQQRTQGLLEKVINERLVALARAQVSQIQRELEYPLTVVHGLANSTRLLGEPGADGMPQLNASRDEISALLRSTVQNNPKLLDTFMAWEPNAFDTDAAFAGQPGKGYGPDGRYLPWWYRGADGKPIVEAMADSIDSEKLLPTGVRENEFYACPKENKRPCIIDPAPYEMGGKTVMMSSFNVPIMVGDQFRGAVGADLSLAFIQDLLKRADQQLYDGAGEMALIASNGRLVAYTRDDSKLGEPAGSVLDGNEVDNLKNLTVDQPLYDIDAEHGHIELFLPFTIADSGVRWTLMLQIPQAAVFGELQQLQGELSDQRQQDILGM

Biological target: PctD(PA4633)-LBD (Pseudomonas aeruginosa, UniProt Q9HVF8)
Experiment: biochemical
Description: Measurements were made using a VP-ITC microcalorimeter (MicroCal, Inc., Northampton, MA) at 25°C. […] The mean enthalpies from the injection of ligands into the buffer were subtracted from raw data prior to data fitting using the “one binding site model” of the MicroCal version of the ORIGIN software.

`CC(=O)OCC[N+](C)(C)C` [acetylcholine] gave a Kd of 23 ± 1 µM.
